Literature values as cited in patent publication US20100105761A1, “TREATMENT OF PAIN THROUGH EXPRESSION OF OPIOID RECEPTORS” (priority 2006, published 2010).

Protein sequences, listed by entry. Tags and fused reporters are not part of them. Lines headed by an entry give the natural chain unless they say otherwise; changes in a name come on top.
UniProt P41145: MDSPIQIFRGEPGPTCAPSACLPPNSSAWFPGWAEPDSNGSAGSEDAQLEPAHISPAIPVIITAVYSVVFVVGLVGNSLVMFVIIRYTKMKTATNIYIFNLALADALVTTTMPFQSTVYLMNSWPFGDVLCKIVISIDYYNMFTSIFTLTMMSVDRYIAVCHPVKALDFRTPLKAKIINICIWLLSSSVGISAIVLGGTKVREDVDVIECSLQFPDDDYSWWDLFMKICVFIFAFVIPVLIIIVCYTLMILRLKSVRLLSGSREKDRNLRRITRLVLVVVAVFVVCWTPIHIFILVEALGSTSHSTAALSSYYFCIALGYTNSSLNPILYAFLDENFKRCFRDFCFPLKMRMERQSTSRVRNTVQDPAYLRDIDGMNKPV

How the values were obtained:
[1] = biological target: δ-receptor (Homo sapiens, UniProt P41143)
[2] = test system: μ receptor
[3] = biological target: κ-receptor (Homo sapiens, UniProt P41145)

## CC(C)[C@H](NC(=O)[C@H](CCC(=O)O)NC(=O)[C@H](Cc1ccccc1)NC(=O)[C@@H](C)NC(=O)[C@@H](N)Cc1ccc(O)cc1)C(=O)N[C@H](C(=O)NCC(=O)O)C(C)C [deltorphin, Tyr-D-Met-Phe-His-Leu-Met-Asp-NH2]
[1]
  affinity / selectivity for δ-receptors (in words): highly selective

## CN1CC[C@]23c4c5ccc(O)c4O[C@H]2[C@@H](O)C=C[C@H]3[C@H]1C5 [morphine]
[2]
  antinociception in mice of the CXBX strain: poor antinociceptive agent
  antinociception in MOR-1 knockout mice, exon-1 disrupted: not

## Nociceptin/orphanin FQ
[3]
  affinity for κ-receptors (in words): little affinity

## Tyr-D-Ala-Phe-Xaa-Val-Val-Gly-NH2, where Xaa is Asp or Glu respectively [[D-Ala2]-deltorphin I]
[1]
  affinity / selectivity for δ-receptors (in words): highly selective

## morphine-6b-glucuronide
[2]
  antinociception in mice of the CXBX strain: potently antinociceptive
  antinociception in MOR-1 knockout mice, exon-1 disrupted: still produce antinociception
